Laboratory results: PubChem BioAssay (NCI)
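Briefly, cells in 96-well plates were exposed to five compound concentrations for 48 h, and endpoints were estimated by linear interpolation. Here, GI50 denotes the concentration required for 50% inhibition of growth. TGI is the concentration that stops growth completely.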

What was measured:
Experiment in all cases: NCI-60 cell line screen, 48 h
A549 NSCLC = system: A549 NSCLC
HCT-15 colon = system: HCT-15 colon
SF-539 CNS = system: SF-539 CNS
SN12C renal = system: SN12C renal
ACHN renal = system: ACHN renal
SK-MEL-5 melanoma = system: SK-MEL-5 melanoma
IGROV1 ovarian = system: IGROV1 ovarian
DLD-1 colon = system: DLD-1 colon
M19-MEL melanoma = system: M19-MEL melanoma
HL-60(TB) leukemia = system: HL-60(TB) leukemia
DMS 114 small cell lung = system: DMS 114 small cell lung
NCI-H23 lung = system: NCI-H23 lung
RXF-631 renal = system: RXF-631 renal
UACC-257 melanoma = system: UACC-257 melanoma
NCI-H322M lung = system: NCI-H322M lung
K-562 leukemia = system: K-562 leukemia
SNB-19 CNS = system: SNB-19 CNS
DMS 273 small cell lung = system: DMS 273 small cell lung
CCRF-CEM leukemia = system: CCRF-CEM leukemia
RXF 393 renal = system: RXF 393 renal
SF-295 CNS = system: SF-295 CNS
SK-MEL-28 melanoma = system: SK-MEL-28 melanoma
EKVX NSCLC = system: EKVX NSCLC
OVCAR-8 ovarian = system: OVCAR-8 ovarian
HCT-116 colon = system: HCT-116 colon
U251 CNS = system: U251 CNS
UACC-62 melanoma = system: UACC-62 melanoma
MALME-3M melanoma = system: MALME-3M melanoma
LXFL 529 NSCLC = system: LXFL 529 NSCLC
NCI-H460 lung = system: NCI-H460 lung
786-0 renal = system: 786-0 renal
SF-268 CNS = system: SF-268 CNS
HOP-92 NSCLC = system: HOP-92 NSCLC
CAKI-1 renal = system: CAKI-1 renal
UO-31 renal = system: UO-31 renal
HOP-62 NSCLC = system: HOP-62 NSCLC
M14 melanoma = system: M14 melanoma
A498 renal = system: A498 renal
LOX IMVI melanoma = system: LOX IMVI melanoma
SNB-75 CNS = system: SNB-75 CNS
SR leukemia = system: SR leukemia
NCI-H522 lung = system: NCI-H522 lung
TK-10 renal = system: TK-10 renal
OVCAR-4 ovarian = system: OVCAR-4 ovarian
OVCAR-3 ovarian = system: OVCAR-3 ovarian
HCC-2998 colon = system: HCC-2998 colon
SK-OV-3 ovarian = system: SK-OV-3 ovarian
HT29 colon = system: HT29 colon
MOLT-4 leukemia = system: MOLT-4 leukemia
KM20L2 colon = system: KM20L2 colon
SK-MEL-2 melanoma = system: SK-MEL-2 melanoma
SW-620 colon = system: SW-620 colon
NCI-H226 lung = system: NCI-H226 lung
RPMI-8226 leukemia = system: RPMI-8226 leukemia
KM12 colon = system: KM12 colon
SNB-78 CNS = system: SNB-78 CNS
COLO 205 colon = system: COLO 205 colon
OVCAR-5 ovarian = system: OVCAR-5 ovarian

CCCSC1CCOP(=O)(N(CCCl)CCCl)N1C (stereo unspecified)
GI50 (A549 NSCLC): > 100 µM
TGI (A549 NSCLC): > 100 µM
GI50 (HCT-15 colon): > 100 µM
TGI (HCT-15 colon): > 100 µM
GI50 (SF-539 CNS): > 100 µM
TGI (SF-539 CNS): > 100 µM
GI50 (SN12C renal): > 100 µM
TGI (SN12C renal): > 100 µM
GI50 (ACHN renal): > 100 µM
TGI (ACHN renal): > 100 µM
GI50 (SK-MEL-5 melanoma): 76.7 µM
TGI (SK-MEL-5 melanoma): > 100 µM
GI50 (IGROV1 ovarian): > 100 µM
TGI (IGROV1 ovarian): > 100 µM
GI50 (DLD-1 colon): > 100 µM
TGI (DLD-1 colon): > 100 µM
GI50 (M19-MEL melanoma): > 100 µM
TGI (M19-MEL melanoma): > 100 µM
GI50 (HL-60(TB) leukemia): 17.6 µM
TGI (HL-60(TB) leukemia): 67.1 µM
GI50 (DMS 114 small cell lung): 43.8 µM
TGI (DMS 114 small cell lung): > 100 µM
GI50 (NCI-H23 lung): > 100 µM
TGI (NCI-H23 lung): > 100 µM
GI50 (RXF-631 renal): > 100 µM
TGI (RXF-631 renal): > 100 µM
GI50 (UACC-257 melanoma): > 100 µM
TGI (UACC-257 melanoma): > 100 µM
GI50 (NCI-H322M lung): > 100 µM
TGI (NCI-H322M lung): > 100 µM
GI50 (K-562 leukemia): 49.3 µM
TGI (K-562 leukemia): > 100 µM
GI50 (SNB-19 CNS): > 100 µM
TGI (SNB-19 CNS): > 100 µM
GI50 (DMS 273 small cell lung): > 100 µM
TGI (DMS 273 small cell lung): > 100 µM
GI50 (CCRF-CEM leukemia): > 100 µM
TGI (CCRF-CEM leukemia): > 100 µM
GI50 (RXF 393 renal): > 100 µM
TGI (RXF 393 renal): > 100 µM
GI50 (SF-295 CNS): > 100 µM
TGI (SF-295 CNS): > 100 µM
GI50 (SK-MEL-28 melanoma): > 100 µM
TGI (SK-MEL-28 melanoma): > 100 µM
GI50 (EKVX NSCLC): > 100 µM
TGI (EKVX NSCLC): > 100 µM
GI50 (OVCAR-8 ovarian): > 100 µM
TGI (OVCAR-8 ovarian): > 100 µM
GI50 (HCT-116 colon): 56.4 µM
TGI (HCT-116 colon): > 100 µM
GI50 (U251 CNS): > 100 µM
TGI (U251 CNS): > 100 µM
GI50 (UACC-62 melanoma): > 100 µM
TGI (UACC-62 melanoma): > 100 µM
GI50 (MALME-3M melanoma): > 100 µM
TGI (MALME-3M melanoma): > 100 µM
GI50 (LXFL 529 NSCLC): 66.9 µM
TGI (LXFL 529 NSCLC): > 100 µM
GI50 (NCI-H460 lung): 94.7 µM
TGI (NCI-H460 lung): > 100 µM
GI50 (786-0 renal): > 100 µM
TGI (786-0 renal): > 100 µM
GI50 (SF-268 CNS): > 100 µM
TGI (SF-268 CNS): > 100 µM
GI50 (HOP-92 NSCLC): 54.8 µM
TGI (HOP-92 NSCLC): > 100 µM
GI50 (CAKI-1 renal): > 100 µM
TGI (CAKI-1 renal): > 100 µM
GI50 (UO-31 renal): > 100 µM
TGI (UO-31 renal): > 100 µM
GI50 (HOP-62 NSCLC): > 100 µM
TGI (HOP-62 NSCLC): > 100 µM
GI50 (M14 melanoma): > 100 µM
TGI (M14 melanoma): > 100 µM
GI50 (A498 renal): > 100 µM
TGI (A498 renal): > 100 µM
GI50 (LOX IMVI melanoma): 21.6 µM
TGI (LOX IMVI melanoma): 86.1 µM
GI50 (SNB-75 CNS): > 100 µM
TGI (SNB-75 CNS): > 100 µM
GI50 (SR leukemia): 47.6 µM
TGI (SR leukemia): > 100 µM
GI50 (NCI-H522 lung): 90.8 µM
TGI (NCI-H522 lung): > 100 µM
GI50 (TK-10 renal): > 100 µM
TGI (TK-10 renal): > 100 µM
GI50 (OVCAR-4 ovarian): > 100 µM
TGI (OVCAR-4 ovarian): > 100 µM
GI50 (OVCAR-3 ovarian): > 100 µM
TGI (OVCAR-3 ovarian): > 100 µM
GI50 (HCC-2998 colon): > 100 µM
TGI (HCC-2998 colon): > 100 µM
GI50 (SK-OV-3 ovarian): > 100 µM
TGI (SK-OV-3 ovarian): > 100 µM
GI50 (HT29 colon): 95.5 µM
TGI (HT29 colon): > 100 µM
GI50 (MOLT-4 leukemia): > 100 µM
TGI (MOLT-4 leukemia): > 100 µM
GI50 (KM20L2 colon): > 100 µM
TGI (KM20L2 colon): > 100 µM
GI50 (SK-MEL-2 melanoma): > 100 µM
TGI (SK-MEL-2 melanoma): > 100 µM
GI50 (SW-620 colon): > 100 µM
TGI (SW-620 colon): > 100 µM
GI50 (NCI-H226 lung): > 100 µM
TGI (NCI-H226 lung): > 100 µM
GI50 (RPMI-8226 leukemia): 79.9 µM
TGI (RPMI-8226 leukemia): > 100 µM
GI50 (KM12 colon): > 100 µM
TGI (KM12 colon): > 100 µM
GI50 (SNB-78 CNS): > 100 µM
TGI (SNB-78 CNS): > 100 µM
GI50 (COLO 205 colon): > 100 µM
TGI (COLO 205 colon): > 100 µM
GI50 (OVCAR-5 ovarian): > 100 µM
TGI (OVCAR-5 ovarian): > 100 µM
